What was measured:
[1] = target: recombinant BACE1 protein (Homo sapiens, UniProt P56817); test: BACE1 biochemical FRET based assay; details: for Selectivity: BACE2 IC50 relative to BACE1 IC50; for IC50: read-out: BACE1 IC50, FRET, pH 5.0, 450 min at room temperature
Text: (§1) This assay is a Fluorescence Resonance Energy Transfer Assay (FRET) based assay. The substrate for this assay is an APP derived 13 amino acids peptide that contains the ‘Swedish’ Lys-Met/Asn-Leu mutation of the amyloid precursor protein (APP) beta-site secretase cleavage site. This substrate also contains two fluorophores: (7-methoxycoumarin-4-yl) acetic acid (Mca) is a fluorescent donor with excitation wavelength at 320 nm and emission at 405 nm and 2,4-dinitrophenol (Dnp) is a proprietary quencher acceptor. […] Upon cleavage by BACE1, the fluorophore Mca is separated from the quenching group Dnp, restoring the full fluorescence yield of the donor. The increase in fluorescence is linearly related to the rate of proteolysis.
Briefly in a 384-well format recombinant BACE1 protein in a final concentration of 0.04 μg/mL was incubated for 450 minutes at room temperature with 10 μm substrate in incubation buffer (final concentrations: 33.3 mM Citrate buffer pH 5.0, 0.033% PEG, 3% DMSO) in the absence or presence of compound. Next the amount of proteolysis was directly measured by fluorescence measurement at T=0′-120′ and T=450′ (excitation at 320 nm and emission at 405 nm). Results were expressed in RFU (Relative Fluorescence Units), as difference between T450 and Tx (Tx is chosen depending on the reaction speed between 0 and 120 minutes).
(§2) A best-fit curve was fitted by a minimum sum of squares method to the plot of % Controlmin versus compound concentration. From this an IC50 value (inhibitory concentration causing 50% inhibition of activity) can be obtained.

By UniProt entry, the sequences of proteins in these tests, tags left out. Residues count along the entry.
UniProt P56817, 46-501 limits assumed: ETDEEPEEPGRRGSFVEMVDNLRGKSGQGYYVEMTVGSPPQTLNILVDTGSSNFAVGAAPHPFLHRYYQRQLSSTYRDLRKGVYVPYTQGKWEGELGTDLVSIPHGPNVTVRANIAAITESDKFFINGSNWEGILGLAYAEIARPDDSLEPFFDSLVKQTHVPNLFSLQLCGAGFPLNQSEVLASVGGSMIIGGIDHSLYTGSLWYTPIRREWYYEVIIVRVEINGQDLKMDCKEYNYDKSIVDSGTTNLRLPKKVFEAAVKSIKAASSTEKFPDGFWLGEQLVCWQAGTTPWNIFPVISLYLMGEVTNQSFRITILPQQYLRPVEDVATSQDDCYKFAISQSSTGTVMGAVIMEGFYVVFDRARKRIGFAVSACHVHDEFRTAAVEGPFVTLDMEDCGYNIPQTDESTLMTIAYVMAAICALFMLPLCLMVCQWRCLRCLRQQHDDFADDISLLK
UniProt Q9Y5Z0, 63-518 limits assumed: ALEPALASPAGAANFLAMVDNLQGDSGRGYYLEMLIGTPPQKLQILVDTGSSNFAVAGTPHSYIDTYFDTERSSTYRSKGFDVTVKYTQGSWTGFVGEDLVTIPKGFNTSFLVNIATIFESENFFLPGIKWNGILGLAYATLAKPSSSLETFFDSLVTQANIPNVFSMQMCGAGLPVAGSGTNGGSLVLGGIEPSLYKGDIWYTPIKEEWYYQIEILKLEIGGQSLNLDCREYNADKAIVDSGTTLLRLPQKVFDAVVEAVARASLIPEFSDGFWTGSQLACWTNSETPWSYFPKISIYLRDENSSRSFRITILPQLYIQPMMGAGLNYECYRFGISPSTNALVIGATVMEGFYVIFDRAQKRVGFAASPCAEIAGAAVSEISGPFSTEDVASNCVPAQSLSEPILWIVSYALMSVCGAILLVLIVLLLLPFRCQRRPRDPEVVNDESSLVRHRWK
UniProt Q12809, whole entry: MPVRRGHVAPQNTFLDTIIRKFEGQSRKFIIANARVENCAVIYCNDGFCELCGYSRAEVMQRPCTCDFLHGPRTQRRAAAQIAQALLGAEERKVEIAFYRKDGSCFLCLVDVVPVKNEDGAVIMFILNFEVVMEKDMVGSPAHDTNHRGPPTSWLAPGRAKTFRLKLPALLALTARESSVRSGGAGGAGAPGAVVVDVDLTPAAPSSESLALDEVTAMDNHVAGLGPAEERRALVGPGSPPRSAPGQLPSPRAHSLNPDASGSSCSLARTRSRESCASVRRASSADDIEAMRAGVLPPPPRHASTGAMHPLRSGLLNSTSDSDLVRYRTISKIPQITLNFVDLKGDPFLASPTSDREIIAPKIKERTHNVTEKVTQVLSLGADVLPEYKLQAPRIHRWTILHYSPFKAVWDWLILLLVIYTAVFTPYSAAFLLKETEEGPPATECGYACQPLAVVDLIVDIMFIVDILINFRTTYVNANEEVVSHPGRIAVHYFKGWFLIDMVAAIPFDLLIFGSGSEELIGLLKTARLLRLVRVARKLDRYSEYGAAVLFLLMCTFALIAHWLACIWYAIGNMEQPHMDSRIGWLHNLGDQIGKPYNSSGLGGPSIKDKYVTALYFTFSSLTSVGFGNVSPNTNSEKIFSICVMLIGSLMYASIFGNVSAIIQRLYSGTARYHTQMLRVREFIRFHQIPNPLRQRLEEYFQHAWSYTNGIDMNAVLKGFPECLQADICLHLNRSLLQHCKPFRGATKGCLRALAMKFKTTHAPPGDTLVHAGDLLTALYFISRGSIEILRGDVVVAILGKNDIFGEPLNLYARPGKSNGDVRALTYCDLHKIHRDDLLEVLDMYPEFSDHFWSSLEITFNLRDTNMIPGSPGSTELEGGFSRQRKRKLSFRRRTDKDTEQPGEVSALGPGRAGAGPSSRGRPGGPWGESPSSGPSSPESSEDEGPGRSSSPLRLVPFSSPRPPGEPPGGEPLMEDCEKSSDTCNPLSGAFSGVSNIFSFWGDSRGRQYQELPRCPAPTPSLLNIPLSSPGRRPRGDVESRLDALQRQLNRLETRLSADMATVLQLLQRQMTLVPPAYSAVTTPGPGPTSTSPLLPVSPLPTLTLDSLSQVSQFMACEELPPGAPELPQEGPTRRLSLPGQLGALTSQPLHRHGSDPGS
UniProt P08183, whole entry: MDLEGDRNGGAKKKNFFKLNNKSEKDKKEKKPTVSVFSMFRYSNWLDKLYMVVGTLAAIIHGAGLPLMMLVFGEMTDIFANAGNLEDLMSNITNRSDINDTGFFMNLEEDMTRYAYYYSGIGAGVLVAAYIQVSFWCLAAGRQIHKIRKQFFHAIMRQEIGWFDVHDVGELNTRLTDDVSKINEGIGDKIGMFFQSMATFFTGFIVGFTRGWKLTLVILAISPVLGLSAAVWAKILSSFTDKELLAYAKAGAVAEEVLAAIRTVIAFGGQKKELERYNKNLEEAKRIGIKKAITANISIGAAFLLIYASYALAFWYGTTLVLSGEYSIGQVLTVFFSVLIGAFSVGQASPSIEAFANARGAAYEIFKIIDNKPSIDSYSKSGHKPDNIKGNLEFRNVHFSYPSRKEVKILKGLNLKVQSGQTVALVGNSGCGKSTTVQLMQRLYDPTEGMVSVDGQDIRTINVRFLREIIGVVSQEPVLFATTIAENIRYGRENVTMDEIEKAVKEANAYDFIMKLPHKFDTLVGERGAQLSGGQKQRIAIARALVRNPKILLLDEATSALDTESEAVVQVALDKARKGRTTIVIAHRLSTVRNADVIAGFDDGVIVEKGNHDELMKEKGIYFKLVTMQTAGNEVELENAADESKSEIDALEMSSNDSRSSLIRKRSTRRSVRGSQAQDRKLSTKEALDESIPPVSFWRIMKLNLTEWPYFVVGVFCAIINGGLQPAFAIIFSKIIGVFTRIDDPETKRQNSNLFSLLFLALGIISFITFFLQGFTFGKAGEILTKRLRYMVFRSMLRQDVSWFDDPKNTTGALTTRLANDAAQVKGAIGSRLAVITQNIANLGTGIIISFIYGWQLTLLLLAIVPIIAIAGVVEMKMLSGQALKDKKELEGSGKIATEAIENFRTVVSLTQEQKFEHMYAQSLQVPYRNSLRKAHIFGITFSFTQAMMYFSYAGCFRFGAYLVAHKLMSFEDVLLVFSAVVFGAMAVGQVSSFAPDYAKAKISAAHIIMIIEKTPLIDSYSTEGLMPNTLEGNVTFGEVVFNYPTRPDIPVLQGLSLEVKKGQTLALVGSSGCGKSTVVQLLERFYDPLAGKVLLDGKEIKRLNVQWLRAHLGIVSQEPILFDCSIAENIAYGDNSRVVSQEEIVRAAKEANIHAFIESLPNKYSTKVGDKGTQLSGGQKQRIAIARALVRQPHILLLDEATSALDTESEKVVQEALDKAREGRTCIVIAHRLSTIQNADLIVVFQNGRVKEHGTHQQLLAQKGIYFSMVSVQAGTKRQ

[2] = target: recombinant BACE2 protein (Homo sapiens, UniProt Q9Y5Z0); test: BACE2 biochemical FRET based assay; details: read-out: BACE2 IC50, pH 5.0, 450 min at room temperature
Text: as §1, with “assay” for “assay is an APP derived 13 amino acids peptide that”, “beta-secretase” for “beta-site secretase”, “the beta-secretase,” for “BACE1,”
Briefly in a 384-well format recombinant BACE2 protein in a final concentration of 0.4 μg/mL was incubated for 450 minutes at room temperature with 10 μM substrate in incubation buffer (final concentrations: 33.3 mM Citrate buffer pH 5.0, 0.033% PEG, 2% DMSO) in the absence or presence of compound. Next the amount of proteolysis was directly measured by fluorescence measurement at T=0 and T=450 (excitation at 320 nm and emission at 405 nm). Results were expressed in RFU (Relative Fluorescence Units), as difference between T450 and T0.
as §2

Metabolic stability test = details: human liver microsomes 0.5 mg protein/mL, NADPH, 37° C.
Procedure: Using a commercially available pooled human liver microsomes, a compound of the present invention was reacted for a constant time, a remaining rate was calculated by comparing a reacted sample and an unreacted sample, thereby, a degree of metabolism in liver was assessed.
A reaction was performed (oxidative reaction) at 37° C. for 0 minute or 30 minutes in the presence of 1 mmol/L NADPH in 0.2 mL of a buffer (50 mmol/L Tris-HCl pH 7.4, 150 mmol/L potassium chloride, 10 mmol/L magnesium chloride) containing 0.5 mg protein/mL of human liver microsomes. After the reaction, 50 μL of the reaction solution was added to 100 μL of a methanol/acetonitrile=1/1 (v/v), mixed and centrifuged at 3000 rpm for 15 minutes. The compound of the present invention in the supernatant was quantified by LC/MS/MS or solid phase extraction (SPE)/MS, and a remaining amount of the compound of the present invention after the reaction was calculated, letting a compound amount at 0 minute reaction time to be 100%.

[3] = target: human ether-a-go-go related gene (hERG) channel (Homo sapiens, UniProt Q12809); test: hERG test (whole cell patch clamp, QPatch); details: CHO cells expressing hERG, tail peak current
Text: For the purpose of assessing risk of an electrocardiogram QT interval prolongation, effects on delayed rectifier K+ current (IKr), which plays an important role in the ventricular repolarization process of the compound of the present invention, was studied using CHO cells expressing human ether-a-go-go related gene (hERG) channel.
A cell was retained at a membrane potential of −80 mV by whole cell patch clamp method using an automated patch clamp system (QPatch; Sophion Bioscience A/S). After application of leak potential at −50 mV, IKr induced by depolarization pulse stimulation at +20 mV for 2 seconds and, further, repolarization pulse stimulation at −50 mV for 2 seconds was recorded.
After the generated current was stabilized, extracellular solution (NaCl: 145 mmol/L, KCl: 4 mmol/L, CaCl2:2 mmol/L MgCl2:1 mmol/L, 1 mmol/L, HEPES (4-(2-hydroxyethyl)-1-piperazineethanesulfonic acid: 10 mmol/L, glucose:10 mmol/L pH=7.4) in which the compound of the present invention have been dissolved at an objective concentration was applied to the cell under the room temperature condition for 10 minutes. From the recording IKr, an absolute value of the tail peak current was measured based on the current value at the resting membrane potential using an analysis software (QPatch assay software; Sophion Bioscience A/S). Further, the % inhibition relative to the tail peak current before application of the compound of the present invention was calculated, and compared with the vehicle-applied group (0.1% dimethyl sulfoxide solution) to assess influence of the compound of the present invention on IKr.

[4] = target: P-gp (MDR1 expressing LLC-PK1 cells) (Homo sapiens, UniProt P08183); test: P-gp substrate test; details: MDR1 expressing LLC-PK1 cells vs parent LLC-PK1 cells
Procedure: 1. MDR1 expressing LLC-PK1 cells and its parent cells were routinely cultured in Medium A (Medium 199 (Invitrogen) supplemented with 10% FBS (Invitrogen), gentamycin (0.05 mg/mL, Invitrogen) and hygromycin B (100 μg/mL, Invitrogen)) at 37° C. under 5% CO2/95% 02 gasses. For the transport experiments, these cells were seeded on Transwell (Registered trademark) insert (96-well, pore size: 0.4 μm, Coaster) at a density of 1.4×10^4 cells/insert and added Medium B (Medium 199 supplemented with 10% FBS and gentamycin at 0.05 mg/mL) to the feeder tray. These cells were incubated in a CO2 incubator (5% CO2/95% 02 gasses, 37° C.) and replace apical and basolateral culture medium every 48-72 hr after seeding. These cells were used between 4 and 6 days after seeding. 2. The medium in the culture insert seeded with MDR1 expressing cells or parent cells were removed by aspiration and rinsed by HBSS. The apical side (140 μL) or basolateral side (175 μL) was replaced with transport buffer containing reference substrates and the present invention and then an aliquot (50 μL) of transport buffer in the donor side was collected to estimate initial concentration of reference substrate and the present invention. After incubation for designed time at 37° C., an aliquot (50 μL) of transport buffer in the donor and receiver side were collected. Assay was performed by duplicate or triplicate. 3. Reference substrate and the present invention in the aliquot was quantified by LC/MS/MS.
Permeated amounts across monolayers of MDR1 expressing and parent cells were determined, and permeation coefficients (Pe) were calculated using Excel 2003 from the following equitation:
Pe (cm/sec)=Permeated amount (pmol)/area of cell membrane (cm^2)/initial concentration (nM)/incubation time (sec) Where, permeated amount was calculated from permeation concentration (nM, concentration of the receiver side) of the substance after incubation for the defined time (sec) multiplied by volume. (mL) and area of cell membrane was used 0.1433 (cm2). The efflux ratio was calculated using the following equation:
Efflux Ratio=Basolateral-to-Apical Pe/Apical-to-Basolateral Pe
The net flux was calculated using the following equation:
Net flux=Efflux Ratio in MDR1 expressing cells/Efflux Ratio in parent cells

[5] = system: Abeta 1-42 in cerebrospinal fluid (CSF); test: Pharmacology in the beagle dog: beta-amyloid profile in cerebrospinal fluid; details: for % Decrease in Abeta 1-42 at 24 h(a) or 25 h(b) post dosing compared to own baseline: 24 h or 25 h
Procedure: Test compounds were tested to evaluate the effect on the beta-amyloid profile in cerebrospinal fluid (CSF) of dogs after a single dose, in combination with pharmacokinetic (PK) follow up and limited safety evaluation.
In the case of compounds shown below, two or 4 beagle dogs (1 or 2 male, 1 or 2 female) were dosed with vehicle (1 mL/kg of an aqueous solution of 20% cyclodextrin) and 4 beagle dogs (2 males and 2 females) per dose group were dosed with test compound at the doses indicated in the following Table in an aqueous 20% cyclodextrin solution with a concentration in mg/mL identical to the dose given in mg/kg) on an empty stomach.
CSF was taken in conscious animals directly from the lateral ventricle via a cannula which was screwed in the skull and covered with subcutaneous tissue and skin, before and at 4, 8, 25 and 49 hours after dosing. Eight hours after dosing the animals got access to their regular meal for 30 minutes. Blood was taken for PK follow up (0.5, 1, 2, 4, 8, 25 and 49 hours) and serum samples for biochemistry were taken before and at 8 and 25 h after dosing. The CSF samples were used for measurement of Abeta 1-37, Abeta 1-38, Abeta 1-40 and Abeta 1-42.

Row | SMILES | Selectivity [1] | IC50 [1] | IC50 [2] | Remaining rate (%) at 30 min (Metabolic stability test) | P-gp ER ratio [4] | hERG inhibition (%) at 3 μM [3] | % Decrease in Abeta 1-42 at 8 h post dosing compared to own baseline ([5]; single dose 0.31 mg/kg) | % Decrease in Abeta 1-42 at 24 h(a) or 25 h(b) post dosing compared to own baseline ([5]; single dose 0.31 mg/kg) | % Decrease in Abeta 1-42 at 8 h post dosing compared to own baseline ([5]; single dose 0.63 mg/kg) | % Decrease in Abeta 1-42 at 24 h(a) or 25 h(b) post dosing compared to own baseline ([5]; single dose 0.63 mg/kg) | % Decrease in Abeta 1-42 at 8 h post dosing compared to own baseline ([5]; single dose 1.25 mg/kg) | % Decrease in Abeta 1-42 at 24 h(a) or 25 h(b) post dosing compared to own baseline ([5]; single dose 1.25 mg/kg) | % Decrease in Abeta 1-42 at 8 h post dosing compared to own baseline ([5]; single dose 2.5 mg/kg) | % Decrease in Abeta 1-42 at 24 h(a) or 25 h(b) post dosing compared to own baseline ([5]; single dose 2.5 mg/kg) | % Decrease in Abeta 1-42 at 49 h post dosing compared to own baseline ([5]; single dose 2.5 mg/kg, 49 h)
1 | C[C@@H]1OC[C@H]2OC(N)=N[C@](CF)(c3cc(NC(=O)c4cnc(OCF)cn4)ccc3F)[C@@H]12 | 17.8 | 0.0191 µM | 0.339 µM | 86% | 3.8 | 10.4% |  |  |  |  |  |  | −37% | −68% | −30%
2 | C[C@]1(c2cc(NC(=O)c3cnc(OCF)cn3)ccc2F)N=C(N)O[C@@H]2CO[C@@H](C(F)(F)F)[C@@H]21 | 50.3 | 0.0398 µM | 2 µM | 103% | 3.4 | 32% |  |  |  |  |  |  |  |  | 
3 | C[C@]1(c2cc(NC(=O)c3cnc(OCF)cn3)ccc2F)N=C(N)O[C@@H]2CO[C@@H](C(F)(F)CF)[C@@H]21 | 67.7 | 0.0141 µM | 0.955 µM |  |  |  |  |  |  |  |  |  |  |  | 
4 | C[C@]1(c2cc(NC(=O)c3cnc(OCF)cn3)ccc2F)N=C(N)O[C@@H]2CCOC[C@@]21F | 12.3 | 0.0123 µM | 0.151 µM |  |  |  |  |  |  |  |  |  |  |  | 

Now those with a lower IC50 [1], led by results:

Row | Selectivity [1] | IC50 [1] | IC50 [2] | Remaining rate (%) at 30 min (Metabolic stability test) | P-gp ER ratio [4] | SMILES | hERG inhibition (%) at 3 μM [3] | % Decrease in Abeta 1-42 at 8 h post dosing compared to own baseline ([5]; single dose 0.31 mg/kg) | % Decrease in Abeta 1-42 at 24 h(a) or 25 h(b) post dosing compared to own baseline ([5]; single dose 0.31 mg/kg) | % Decrease in Abeta 1-42 at 8 h post dosing compared to own baseline ([5]; single dose 0.63 mg/kg) | % Decrease in Abeta 1-42 at 24 h(a) or 25 h(b) post dosing compared to own baseline ([5]; single dose 0.63 mg/kg) | % Decrease in Abeta 1-42 at 8 h post dosing compared to own baseline ([5]; single dose 1.25 mg/kg) | % Decrease in Abeta 1-42 at 24 h(a) or 25 h(b) post dosing compared to own baseline ([5]; single dose 1.25 mg/kg) | % Decrease in Abeta 1-42 at 8 h post dosing compared to own baseline ([5]; single dose 2.5 mg/kg) | % Decrease in Abeta 1-42 at 24 h(a) or 25 h(b) post dosing compared to own baseline ([5]; single dose 2.5 mg/kg) | % Decrease in Abeta 1-42 at 49 h post dosing compared to own baseline ([5]; single dose 2.5 mg/kg, 49 h)
5 | 32.4 | 0.00955 µM | 0.309 µM | 78% | 3.4 | CC[C@@H]1OC[C@H]2OC(N)=N[C@](CF)(c3cc(NC(=O)c4cnc(OCF)cn4)ccc3F)[C@@H]12 | 21.9% |  |  |  |  |  |  |  |  | 
6 | 25.7 | 0.0038 µM | 0.0977 µM | 69% | 3.6 | C[C@H]1OC[C@H]2[C@@H]1OC(N)=N[C@]2(CF)c1cc(NC(=O)c2cnc(OCF)cn2)ccc1F | 8.4% | −64% | −33% | −70% | −31% | −78% | −46% |  |  | 
